pKi: −log10 of the molar value. Read-outs that look alike come from different tables or passages of the source.
Tests used:
Assay type in all cases: biochemical
Aurora-2 = molecular target: T1, Aurora-2 (Homo sapiens, UniProt O14965); experiment: Ki determination for the inhibition of Aurora-2 (coupled enzyme assay)
T1 sequence (O14965 1-403): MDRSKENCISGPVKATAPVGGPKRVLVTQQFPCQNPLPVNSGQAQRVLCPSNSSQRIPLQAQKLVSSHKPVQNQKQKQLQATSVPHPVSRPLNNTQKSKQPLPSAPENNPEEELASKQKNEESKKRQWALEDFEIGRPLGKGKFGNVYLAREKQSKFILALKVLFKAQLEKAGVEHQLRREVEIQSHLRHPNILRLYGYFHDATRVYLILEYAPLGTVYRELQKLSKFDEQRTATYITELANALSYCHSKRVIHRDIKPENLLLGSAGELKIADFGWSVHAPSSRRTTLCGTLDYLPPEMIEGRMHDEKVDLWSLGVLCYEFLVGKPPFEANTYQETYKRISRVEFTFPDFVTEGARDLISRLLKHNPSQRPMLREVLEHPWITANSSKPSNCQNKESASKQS
Description: Compounds were screened in the following manner for their ability to inhibit Aurora-2 using a standard coupled enzyme assay (Fox et al (1998) Protein Sci 7, 2249).
To an assay stock buffer solution containing 0.1M HEPES 7.5, 10 mM MgCl2, 1 mM DTT, 25 mM NaCl, 2.5 mM phosphoenolpyruvate, […], 30 mg/ml pyruvate kinase, 10 mg/ml lactate dehydrogenase, […], and 800 μM peptide (LRRASLG, American Peptide, Sunnyvale, Calif.) was added a DMSO solution of a compound of the present invention to a final concentration of 30 μM. The resulting mixture was incubated at 30° C. for 10 min. The reaction was initiated by the addition of 10 μL of Aurora-2 stock solution to give a final concentration of 70 nM in the assay. The rates of reaction were obtained by monitoring absorbance at 340 nm over a 5 minute read time at 30° C. using a BioRad Ultramark plate reader (Hercules, Calif.). The Ki values were determined from the rate data as a function of inhibitor concentration.

Sequences of proteins named here, by UniProt entry; tags and fusion partners are left off. A change or cut given only in a name is not applied to a line headed by its entry.
UniProt P49841: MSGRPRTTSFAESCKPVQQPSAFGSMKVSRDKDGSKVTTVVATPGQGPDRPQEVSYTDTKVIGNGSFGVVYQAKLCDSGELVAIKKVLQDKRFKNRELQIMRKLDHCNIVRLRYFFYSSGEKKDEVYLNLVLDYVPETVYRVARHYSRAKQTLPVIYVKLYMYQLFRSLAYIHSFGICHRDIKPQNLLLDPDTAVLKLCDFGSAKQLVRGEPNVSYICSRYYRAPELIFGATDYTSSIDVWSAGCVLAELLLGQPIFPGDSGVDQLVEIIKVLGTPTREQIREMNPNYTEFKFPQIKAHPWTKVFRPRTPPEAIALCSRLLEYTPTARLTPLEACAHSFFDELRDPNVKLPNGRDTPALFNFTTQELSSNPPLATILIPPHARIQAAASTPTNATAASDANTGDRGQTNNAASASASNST
UniProt P12931, whole entry: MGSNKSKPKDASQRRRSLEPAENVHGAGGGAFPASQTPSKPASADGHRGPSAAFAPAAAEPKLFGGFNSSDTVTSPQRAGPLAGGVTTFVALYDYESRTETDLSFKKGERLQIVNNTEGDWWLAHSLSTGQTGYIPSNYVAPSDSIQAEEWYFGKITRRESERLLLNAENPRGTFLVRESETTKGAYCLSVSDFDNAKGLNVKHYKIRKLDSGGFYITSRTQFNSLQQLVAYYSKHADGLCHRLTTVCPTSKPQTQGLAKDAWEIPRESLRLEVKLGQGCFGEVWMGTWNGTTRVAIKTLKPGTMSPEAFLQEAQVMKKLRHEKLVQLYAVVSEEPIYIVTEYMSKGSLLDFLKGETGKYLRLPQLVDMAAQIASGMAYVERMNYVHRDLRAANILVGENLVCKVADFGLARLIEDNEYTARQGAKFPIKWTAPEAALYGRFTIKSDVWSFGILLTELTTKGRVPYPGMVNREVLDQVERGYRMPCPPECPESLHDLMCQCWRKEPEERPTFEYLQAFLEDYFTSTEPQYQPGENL

GSK-3β (AA 1-420) = molecular target: T2, GSK-3β (AA 1-420) (Homo sapiens, UniProt P49841); experiment: Ki determination for the inhibition of GSK-3 (coupled enzyme system); settings: 20 nM GSK-3β, 30° C.
T2 construct: GSK-3β (AA 1-420)
Description: Compounds were screened for their ability to inhibit GSK-3β (AA 1-420) activity using a standard coupled enzyme system (Fox et al. (1998) Protein Sci. 7, 2249). Reactions were carried out in a solution containing 100 mM HEPES (pH 7.5), 10 mM MgCl2, 25 mM NaCl, 300 μM NADH, 1 mM DTT and 1.5% DMSO. Final substrate concentrations in the assay were 20 μM ATP (Sigma Chemicals, St Louis, Mo.) and 300 μM peptide (HSSPHQS (PO3H2) EDEEE, American Peptide, Sunnyvale, Calif.). Reactions were carried out at 30° C. and 20 nM GSK-3β. Final concentrations of the components of the coupled enzyme system were 2.5 mM phosphoenolpyruvate, 300 μM NADH, 30 μg/ml pyruvate kinase and 10 μg/ml lactate dehydrogenase.
An assay stock buffer solution was prepared containing all of the reagents listed above with the exception of ATP and the test compound of interest. The assay stock buffer solution (175 μl) was incubated in a 96 well plate with 5 μl of the test compound of interest at final concentrations spanning 0.002 μM to 30 μM at 30° C. for 10 min. […] The reaction was initiated by the addition of 20 μl of ATP (final concentration 20 μM). Rates of reaction were obtained using a Molecular Devices Spectramax plate reader (Sunnyvale, Calif.) over 10 min at 30° C. The Ki values were determined from the rate data as a function of inhibitor concentration.

human Src kinase = molecular target: T3, human Src kinase (Homo sapiens, UniProt P12931); experiment: SRC inhibition assay (radioactivity-based or spectrophotometric assay)
T3 construct: full length recombinant human Src kinase (from Upstate Biotechnology, cat. no. 14-117); purchased Upstate Biotechnology 14-117; host or cells: baculo viral cells
Description: The compounds were evaluated as inhibitors of human Src kinase using either a radioactivity-based assay or spectrophotometric assay. The compounds were assayed as inhibitors of full length recombinant human Src kinase (from Upstate Biotechnology, cat. no. 14-117) expressed and purified from baculo viral cells. […] P-0275). […] In a typical assay, all the reaction components with the exception of ATP were pre-mixed and aliquoted into assay plate wells. […] The assay plate was incubated at 30° C. for 10 min before initiating the reaction with ^33P-ATP. After 20 min of reaction, the reactions were quenched with 150 μl of 10% trichloroacetic acid (TCA) containing 20 mM Na3PO4. The quenched samples were then transferred to a 96-well filter plate (Whatman, UNI-Filter GF/F Glass Fiber Filter, cat no. 7700-3310) installed on a filter plate vacuum manifold. Filter plates were washed four times with 10% TCA containing 20 mM Na3PO4 and then 4 times with methanol. 200 μl of scintillation fluid was then added to each well. The plates were sealed and the amount of radioactivity associated with the filters was quantified on a TopCount scintillation counter. The radioactivity incorporated was plotted as a function of the inhibitor concentration. The data was fitted to a competitive inhibition kinetics model to get the Ki for the compound. The ADP produced from ATP by the human recombinant Src kinase-catalyzed phosphorylation of poly Glu-Tyr substrate was quanitified using a coupled enzyme assay (Fox et al (1998) Protein Sci 7, 2249). In this assay one molecule of NADH is oxidised to NAD for every molecule of ADP produced in the kinase reaction. The disappearance of NADH can be conveniently followed at 340 nm. […] In a typical assay, all the reaction components with the exception of ATP were pre-mixed and aliquoted into assay plate wells. […] The absorbance change at 340 nm with time, the rate of the reaction, was monitored on a molecular devices plate reader. The data of rate as a function of the inhibitor concentration was fitted to competitive inhibition kinetics model to get the Ki for the compound.

[1] = 70 nM Aurora-2, 30° C., read-out: Ki values for Aurora-2
[2] = 20 μM ATP, read-out: Ki values for GSK-3

| Compound | pKi (Aurora-2; [1]) | pKi (GSK-3β (AA 1-420); Ki values for GSK-3, 20 μM ATP) | pKi (GSK-3β (AA 1-420); [2]) | pKi (Aurora-2) | pKi (human Src kinase) |
| --- | --- | --- | --- | --- | --- |
| Cc1cc(Nc2nc(Sc3ccccc3)nc3ccccc23)n[nH]1 [IIa-1, (5-Methyl-2H-pyrazol-3-yl)-(2-phenylsulfanyl-quinazolin-4-yl)-amine] | > 7.00 | 6.00 to 7.00 |  |  |  |
| Cc1cc(Nc2nc(Sc3ccc(Cl)cc3)nc3ccccc23)n[nH]1 [IIa-2, [2-(4-Chlorophenylsulfanyl)-quinazolin-4-yl]-(5-methyl-2H-pyrazol-3-yl)-amine] | > 7.00 |  | > 7.00 |  |  |
| Cc1cc(Nc2nc(Sc3ccc(Cl)cc3Cl)nc3ccccc23)n[nH]1 [IIa-3, [2-(2,4-Dichlorophenylsulfanyl)-quinazolin-4-yl]-(5-methyl-2H-pyrazol-3-yl)-amine] | > 7.00 |  | > 7.00 |  |  |
| COc1ccc(Sc2nc(Nc3cc(C)[nH]n3)c3ccccc3n2)cc1 [IIa-4, [2-(4-Methoxyphenylsulfanyl)-quinazolin-4-yl]-(5-methyl-2H-pyrazol-3-yl)-amine] | > 7.00 | 6.00 to 7.00 |  |  |  |
| Cc1cc(Nc2nc(Sc3ccccc3Cl)nc3ccccc23)n[nH]1 [IIa-7, [2-(2-Chlorophenylsulfanyl)-quinazolin-4-yl]-(5-methyl-2H-pyrazol-3-yl)-amine] |  | 6.00 to 7.00 |  | > 7.00 |  |
| Cc1cc(Nc2nc(Sc3cccc(Cl)c3Cl)nc3ccccc23)n[nH]1 [IIa-8, [2-(2,3-Dichlorophenylsulfanyl)-quinazolin-4-yl]-(5-methyl-2H-pyrazol-3-yl)-amine] |  | > 7.00 |  | > 7.00 |  |
| Cc1cc(Nc2nc(Sc3cccc(Cl)c3)nc3ccccc23)n[nH]1 [IIa-9, [2-(3-Chlorophenylsulfanyl)-quinazolin-4-yl]-(5-methyl-2H-pyrazol-3-yl)-amine] |  | > 7.00 |  | > 7.00 |  |
| COc1ccc(Sc2nc(Nc3cc(C)[nH]n3)c3ccccc3n2)cc1OC [IIa-13, [2-(3,4-Dimethoxyphenylsulfanyl)-quinazolin-4-yl]-(5-methyl-2H-pyrazol-3-yl)-amine] | > 7.00 | 5.15 to 6.00 |  |  | 5.22 to 6.00 |
| COc1ccccc1Sc1nc(Nc2cc(C)[nH]n2)c2ccccc2n1 [IIa-15, [2-(2-Methoxyphenylsulfanyl)-quinazolin-4-yl]-(5-methyl-2H-pyrazol-3-yl)-amine] | > 7.00 | 6.00 to 7.00 |  |  |  |
| Cc1cc(Nc2nc(Sc3ccc4ccccc4c3)nc3ccccc23)n[nH]1 [IIa-16, [2-(2-Naphthalenylsulfanyl)-quinazolin-4-yl]-(5-methyl-2H-pyrazol-3-yl)-amine] | > 7.00 |  |  |  |  |
| Cc1cc(Nc2nc(Sc3c(Cl)cccc3Cl)nc3ccccc23)n[nH]1 [IIa-17, [2-(2,6-Dichlorophenylsulfanyl)-quinazolin-4-yl]-(5-methyl-2H-pyrazol-3-yl)-amine] | > 7.00 |  | > 7.00 |  |  |
| Cc1cc(Nc2nc(Sc3ccc(Cl)c(Cl)c3)nc3ccccc23)n[nH]1 [IIa-18, [2-(3,4-Dichlorophenylsulfanyl)-quinazolin-4-yl]-(5-methyl-2H-pyrazol-3-yl)-amine] | > 7.00 |  | > 7.00 |  |  |
| CC(=O)Nc1ccc(Sc2nc(Nc3cc(C4CC4)[nH]n3)c3ccccc3n2)cc1 [IIa-36, [2-(4-Acetamido-phenylsulfanyl)-quinazolin-4-yl]-(5-cyclopropyl-2H-pyrazol-3-yl)-amine] |  | 6.00 to 7.00 |  | > 7.00 |  |
| CCC(=O)Nc1ccc(Sc2nc(Nc3cc(C)[nH]n3)c3ccccc3n2)cc1 [IIa-50, (5-Methyl-2H-pyrazol-3-yl)-[2-(4-propionylamino-phenylsulfanyl)-quinazolin-4-yl]-amine] | > 7.00 | 5.15 to 6.00 |  |  |  |
| Cc1cc(Nc2nc(Sc3ccc(NC(=O)C4CC4)cc3)nc3ccccc23)n[nH]1 [IIa-51, [2-(4-cyclopropanecarbonylamino-phenylsulfanyl)-quinazolin-4-yl]-(5-methyl-2H-pyrazol-3-yl)-amine] | > 7.00 | 5.15 to 6.00 |  |  |  |
| Cc1cc(Nc2nc(Sc3ccc(NC(=O)OC(C)(C)C)cc3)nc3ccccc23)n[nH]1 [IIa-58, [2-(4-tert-Butoxycarbonylamino-phenylsulfanyl)-quinazolin-4-yl]-(5-methyl-2H-pyrazol-3-yl)-amine] | > 7.00 |  |  |  |  |
| CC(=O)Nc1ccc(Sc2nc(Nc3cc[nH]n3)c3ccccc3n2)cc1 [IIa-63, [2-(4-Acetamido-phenylsulfanyl)-quinazolin-4-yl]-(2H-pyrazol-3-yl)-amine] | > 7.00 | 6.00 to 7.00 |  |  | 5.22 to 6.00 |
| CC(=O)Nc1ccc(Sc2nc(Nc3cc(C)n[nH]3)c3cccc(F)c3n2)cc1 [IIa-78, [2-(4-Acetamidophenylsulfanyl)-8-fluoro-quinazolin-4-yl]-(5-methyl-2H-pyrazol-3-yl)-amine] | > 7.00 | 6.00 to 7.00 |  |  | 5.22 to 6.00 |
| Cc1cc(Nc2nc(Oc3ccccc3)nc3ccccc23)n[nH]1 [IIb-3, (5-Methyl-2H-pyrazol-3-yl)-(2-phenoxy-quinazolin-4-yl)-amine] | > 7.00 |  | > 7.00 |  | 5.22 to 6.00 |
| Cc1cc(Nc2nc(N(CCO)c3ccccc3)nc3ccccc23)n[nH]1 [IIc-1, {2-[(2-Hydroxyethyl)phenylamino]-quinazolin-4-yl}-(5-methyl-2H-pyrazol-3-yl)-amine] | > 7.00 | 6.00 to 7.00 |  |  | 5.22 to 6.00 |
| Cc1cc(Nc2nc(Nc3ccccc3)nc3ccccc23)n[nH]1 [IIc-4, (5-Methyl-2H-pyrazol-3-yl)-(2-phenylamino-quinazolin-4-yl)-amine] | > 7.00 | 6.00 to 7.00 |  |  |  |
| Cc1cc(Nc2nc(Nc3ccc4cn[nH]c4c3)nc3ccccc23)n[nH]1 [IIc-9, [2-(1H-Indazol-6-ylamino)-quinazolin-4-yl]-(5-methyl-2H-pyrazol-3-yl)-amine] | > 7.00 | 6.00 to 7.00 |  |  |  |
| CN(c1ccccc1)c1nc(Nc2n[nH]c3ccccc23)c2ccccc2n1 [IIc-74, (1H-Indazol-3-yl)-(2-methyl-phenyl-amino-quinazolin-4-yl)-amine] |  | 5.15 to 6.00 |  |  |  |
| Cc1cc(Nc2nc(COc3ccc(Cl)cc3)nc3c2CCCCC3)n[nH]1 [IId-5, [2-(4-Chlorophenoxymethyl)-6,7,8,9-tetrahydro-5H-cycloheptapyrimidin-4-yl]-(5-methyl-2H-pyrazol-3-yl)-amine] |  | 6.00 to 7.00 |  | 6.00 to 7.00 |  |
